Laboratory results published in paper PMC5864910, “Mutacin 1140 Lantibiotic Variants Are Efficacious Against Clostridium difficile Infection” (Frontiers in Microbiology, 2018).

By UniProt entry, the sequences of proteins in these tests, tags left out. Where a name states a change or a piece, a line headed by the entry shows the natural chain unless it says otherwise.
UniProt Q12809: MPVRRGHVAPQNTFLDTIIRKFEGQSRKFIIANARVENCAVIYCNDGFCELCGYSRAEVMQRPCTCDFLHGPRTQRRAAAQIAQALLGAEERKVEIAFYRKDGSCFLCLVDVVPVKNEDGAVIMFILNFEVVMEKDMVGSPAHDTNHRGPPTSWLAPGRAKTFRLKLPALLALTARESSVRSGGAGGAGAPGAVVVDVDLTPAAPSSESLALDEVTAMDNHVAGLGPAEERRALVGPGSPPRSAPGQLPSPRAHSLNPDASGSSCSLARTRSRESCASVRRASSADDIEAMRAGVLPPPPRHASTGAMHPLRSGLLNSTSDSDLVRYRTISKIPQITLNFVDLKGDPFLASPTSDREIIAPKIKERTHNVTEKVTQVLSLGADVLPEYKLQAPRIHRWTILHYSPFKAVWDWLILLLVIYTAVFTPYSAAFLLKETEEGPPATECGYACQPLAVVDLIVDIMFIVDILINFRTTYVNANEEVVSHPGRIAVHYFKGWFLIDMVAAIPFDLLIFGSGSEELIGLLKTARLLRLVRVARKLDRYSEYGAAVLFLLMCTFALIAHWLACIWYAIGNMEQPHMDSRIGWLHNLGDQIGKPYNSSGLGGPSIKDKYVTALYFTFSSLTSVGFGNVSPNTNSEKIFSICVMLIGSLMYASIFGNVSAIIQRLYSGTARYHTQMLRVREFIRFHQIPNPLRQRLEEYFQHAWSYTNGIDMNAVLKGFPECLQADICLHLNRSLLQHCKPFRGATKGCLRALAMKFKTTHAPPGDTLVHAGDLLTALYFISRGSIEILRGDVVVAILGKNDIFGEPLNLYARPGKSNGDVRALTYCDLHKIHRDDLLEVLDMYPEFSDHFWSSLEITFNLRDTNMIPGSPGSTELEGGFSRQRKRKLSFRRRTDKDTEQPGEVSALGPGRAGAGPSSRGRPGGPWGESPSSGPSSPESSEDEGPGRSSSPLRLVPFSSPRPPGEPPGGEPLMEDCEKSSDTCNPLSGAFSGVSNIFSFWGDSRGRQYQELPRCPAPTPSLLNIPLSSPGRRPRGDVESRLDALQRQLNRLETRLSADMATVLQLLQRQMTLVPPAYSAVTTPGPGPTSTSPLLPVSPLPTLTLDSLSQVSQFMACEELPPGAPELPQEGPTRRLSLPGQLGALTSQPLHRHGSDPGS

Columns and labels:
[1] = tested on: Ca2+ Channel; experiment: Safety Screen 44: Ca2+ Channel; type: binding, human
[2] = tested on: Nav Channel; experiment: Safety Screen 44: Nav Channel; type: binding, human
[3] = tested on: HepG2 human hepatocellular carcinoma cells; conditions: HepG2 cytotoxicity
[4] = tested on: BZD (central); experiment: Safety Screen 44: BZD (central); type: binding, human
[5] = tested on: NMDA ion channel receptor; experiment: Safety Screen 44: NMDA; type: binding, human; conditions: […]
[6] = tested on: Mycobacterium phlei
[7] = tested on: Kv Channel; experiment: Safety Screen 44: Kv Channel; type: binding, human
[8] = molecular target: hERG (Homo sapiens, UniProt Q12809); conditions: Safety Screen 44

C=C1NC(=O)[C@H](Cc2c[nH]c3ccccc23)NC(=O)[C@H](NC(=O)[C@H](CCCCN)NC(=O)[C@@H](N)Cc2ccccc2)CSC[C@@H](C(=O)N[C@H]2C(=O)N3CCC[C@H]3C(=O)NCC(=O)N[C@H](C(=O)N[C@@H](C)C(=O)N[C@@H](CCCNC(=N)N)C(=O)N/C(=C\C)C(=O)N[C@@H](CO)C(=O)N[C@@H]3CSC[C@@H]4NC(=O)[C@H](Cc5ccc(O)cc5)NC(=O)[C@@H](CS/C=C\NC4=O)NC(=O)[C@H](CC(N)=O)NC(=O)[C@H](Cc4ccccc4)NC3=O)CS[C@H]2C)NC(=O)[C@H](CC(C)C)NC1=O [G15S]
Cerep SafetyScreen 44 % Inhibition Ca2+ Channel [1]: -18%
Cerep SafetyScreen 44 % Inhibition Nav Channel [2]: -1%
HepG2 EC50 [3]: 397 µg/mL
Cerep SafetyScreen 44 % Inhibition BZD (central) [4]: -22%
Cerep SafetyScreen 44 % Inhibition NMDA [5]: 1%
Minimum Inhibitory Concentration Mycobacterium phlei [6]: 4 µg/mL
Cerep SafetyScreen 44 % Inhibition Kv Channel [7]: 3%

C=C1NC(=O)[C@H](Cc2c[nH]c3ccccc23)NC(=O)[C@H](NC(=O)[C@H](CCCCN)NC(=O)[C@@H](N)Cc2ccccc2)CSC[C@@H](C(=O)N[C@H]2C(=O)N3CCC[C@H]3C(=O)NCC(=O)N[C@H](C(=O)N[C@@H](C)C(=O)N[C@H](C(=O)N/C(=C\C)C(=O)NCC(=O)N[C@@H]3CSC[C@@H]4NC(=O)[C@H](Cc5ccc(O)cc5)NC(=O)[C@@H](CS/C=C\NC4=O)NC(=O)[C@H](CC(N)=O)NC(=O)[C@H](Cc4ccccc4)NC3=O)[C@@H](C)O)CS[C@H]2C)NC(=O)[C@H](CC(C)C)NC1=O [R13T]
Cerep SafetyScreen 44 % Inhibition Ca2+ Channel [1]: -20%
Cerep SafetyScreen 44 % Inhibition Nav Channel [2]: 1%
Cerep SafetyScreen 44 % Inhibition BZD (central) [4]: -27%
Cerep SafetyScreen 44 % Inhibition NMDA [5]: 13%
Minimum Inhibitory Concentration Mycobacterium phlei [6]: 8 µg/mL
Cerep SafetyScreen 44 % Inhibition Kv Channel [7]: -7%

C=C1NC(=O)[C@H](Cc2c[nH]c3ccccc23)NC(=O)[C@H](NC(=O)[C@H](CCCCN)NC(=O)[C@@H](N)Cc2ccccc2)CSC[C@@H](C(=O)N[C@H]2C(=O)N3CCC[C@H]3C(=O)NCC(=O)N[C@H](C(=O)N[C@@H](C)C(=O)N[C@@H](CCCNC(=N)N)C(=O)N/C(=C\C)C(=O)NCC(=O)N[C@@H]3CSC[C@@H]4NC(=O)[C@H](Cc5ccc(O)cc5)NC(=O)[C@@H](CS/C=C\NC4=O)NC(=O)[C@H](CC(N)=O)NC(=O)[C@H](Cc4ccccc4)NC3=O)CS[C@H]2C)NC(=O)[C@H](C(C)C)NC1=O [L6V]
Cerep SafetyScreen 44 % Inhibition Ca2+ Channel [1]: -6%
Cerep SafetyScreen 44 % Inhibition Nav Channel [2]: -12%
HepG2 EC50 [3]: 536 µg/mL
Cerep SafetyScreen 44 % Inhibition BZD (central) [4]: 1%
Cerep SafetyScreen 44 % Inhibition NMDA [5]: 24%
Minimum Inhibitory Concentration Mycobacterium phlei [6]: 2 µg/mL
Cerep SafetyScreen 44 % Inhibition Kv Channel [7]: 8%

C=C1NC(=O)[C@H](Cc2c[nH]c3ccccc23)NC(=O)[C@H](NC(=O)[C@H](CCCCN)NC(=O)[C@@H](N)Cc2ccccc2)CSC[C@@H](C(=O)N[C@H]2C(=O)N3CCC[C@H]3C(=O)NCC(=O)N[C@H](C(=O)N[C@@H](C)C(=O)N[C@@H](CCCNC(=N)N)C(=O)N/C(=C\C)C(=O)N[C@@H](CC(N)=O)C(=O)N[C@@H]3CSC[C@@H]4NC(=O)[C@H](Cc5ccc(O)cc5)NC(=O)[C@@H](CS/C=C\NC4=O)NC(=O)[C@H](CC(N)=O)NC(=O)[C@H](Cc4ccccc4)NC3=O)CS[C@H]2C)NC(=O)[C@H](CC(C)C)NC1=O [G15N]
Cerep SafetyScreen 44 % Inhibition Ca2+ Channel [1]: -10%
Cerep SafetyScreen 44 % Inhibition Nav Channel [2]: 17%
HepG2 EC50 [3]: 584 µg/mL
Cerep SafetyScreen 44 % Inhibition BZD (central) [4]: -23%
Cerep SafetyScreen 44 % Inhibition NMDA [5]: 13%
Minimum Inhibitory Concentration Mycobacterium phlei [6]: 4 µg/mL
Cerep SafetyScreen 44 % Inhibition Kv Channel [7]: -3%

C/C=C(\NC(=O)[C@H](CCCNC(=N)N)NC(=O)[C@H](C)NC(=O)[C@@H]1CS[C@@H](C)[C@@H](NC(=O)[C@@H]2CSC[C@@H](NC(=O)[C@H](CCCCN)NC(=O)[C@@H](N)Cc3ccccc3)C(=O)N[C@@H](Cc3c[nH]c4ccccc34)C(=O)N[C@@H](C)C(=O)N[C@@H](CC(C)C)C(=O)N2)C(=O)N2CCC[C@H]2C(=O)NCC(=O)N1)C(=O)NCC(=O)N[C@@H]1CSC[C@@H]2NC(=O)[C@H](Cc3ccc(O)cc3)NC(=O)[C@@H](CS/C=C\NC2=O)NC(=O)[C@H](CC(N)=O)NC(=O)[C@H](Cc2ccccc2)NC1=O [Ser5Ala]
hERG hit [8]: 23%
